Values quoted from earlier work, collected in US20140336073A1, “METHOD OF DETERMINATION OF CANCER CELL DRUG SENSITIVITY TOWARDS AURORA KINASE INHIBITORS” (PALACKY UNIVERSITY, OLOMOUC, priority 2011, published 2014).

By UniProt entry, the sequences of proteins in these tests, tags left out.
UniProt P10415, whole entry: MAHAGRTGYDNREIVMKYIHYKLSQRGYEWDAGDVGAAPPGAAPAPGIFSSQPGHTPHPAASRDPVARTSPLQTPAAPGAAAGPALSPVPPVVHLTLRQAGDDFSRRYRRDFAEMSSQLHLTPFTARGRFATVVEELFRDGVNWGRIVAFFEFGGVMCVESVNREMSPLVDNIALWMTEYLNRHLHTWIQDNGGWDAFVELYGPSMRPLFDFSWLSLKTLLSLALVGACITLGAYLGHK

Molecular target: Bcl-2 (Homo sapiens, UniProt P10415)
Conditions: cited from earlier work

CC1(C)CCC(c2ccc(Cl)cc2)=C(CN2CCN(c3ccc(C(=O)NS(=O)(=O)c4ccc(N[C@H](CCN5CCOCC5)CSc5ccccc5)c(S(=O)(=O)C(F)(F)F)c4)cc3)CC2)C1 [ABT-263, (R)4-(4-((4′-chloro-4,4-dimethyl-3,4,5,6-tetrahydro[1,1′-biphenyl]-2-yl)methyl)piperazin-1-yl)-N-((4-((4-morpholino-1-(phenylthio)butan-2-yl)amino)-3-((trifluoromethyl)sulfonyl)phenyl)sulfonyl)benzamide]
Ki: < 1 nM
